Legend:
[1] = biological target: T1, Neuronal acetylcholine receptor; alpha4/beta2 (Homo sapiens, UniProt P17787+P43681); assay: Agonist activity at human low-sensitivity alpha4beta2 nAChR expressed in human SH-EP1 cells assessed as stimulation of 86Rb+ efflux preincubated for 10 mins by liquid scintillation counting relative to control; type: functional, cell-based
[2] = biological target: T1, Neuronal acetylcholine receptor; alpha4/beta2; assay: Agonist activity at human high-sensitivity alpha4beta2 nAChR expressed in human SH-EP1 cells assessed as stimulation of 86Rb+ efflux preincubated for 10 mins by liquid scintillation counting relative to control; type: functional, cell-based

Sequences of proteins named here, by UniProt entry; tags and fusion partners are left off. A change or cut given only in a name is not applied to a line headed by its entry.
UniProt P17787: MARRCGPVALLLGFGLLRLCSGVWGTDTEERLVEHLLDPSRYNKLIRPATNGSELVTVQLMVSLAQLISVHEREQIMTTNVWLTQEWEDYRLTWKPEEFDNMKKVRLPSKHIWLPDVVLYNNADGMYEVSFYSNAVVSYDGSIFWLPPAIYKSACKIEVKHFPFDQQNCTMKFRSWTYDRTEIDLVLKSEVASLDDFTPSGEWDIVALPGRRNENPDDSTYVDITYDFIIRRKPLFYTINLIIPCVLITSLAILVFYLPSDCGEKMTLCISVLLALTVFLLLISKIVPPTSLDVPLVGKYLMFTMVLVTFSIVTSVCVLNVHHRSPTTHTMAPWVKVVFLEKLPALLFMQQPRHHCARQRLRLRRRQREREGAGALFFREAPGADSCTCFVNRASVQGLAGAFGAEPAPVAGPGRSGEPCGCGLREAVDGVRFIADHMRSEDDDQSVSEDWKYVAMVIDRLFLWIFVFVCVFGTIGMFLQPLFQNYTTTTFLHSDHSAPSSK
UniProt P43681: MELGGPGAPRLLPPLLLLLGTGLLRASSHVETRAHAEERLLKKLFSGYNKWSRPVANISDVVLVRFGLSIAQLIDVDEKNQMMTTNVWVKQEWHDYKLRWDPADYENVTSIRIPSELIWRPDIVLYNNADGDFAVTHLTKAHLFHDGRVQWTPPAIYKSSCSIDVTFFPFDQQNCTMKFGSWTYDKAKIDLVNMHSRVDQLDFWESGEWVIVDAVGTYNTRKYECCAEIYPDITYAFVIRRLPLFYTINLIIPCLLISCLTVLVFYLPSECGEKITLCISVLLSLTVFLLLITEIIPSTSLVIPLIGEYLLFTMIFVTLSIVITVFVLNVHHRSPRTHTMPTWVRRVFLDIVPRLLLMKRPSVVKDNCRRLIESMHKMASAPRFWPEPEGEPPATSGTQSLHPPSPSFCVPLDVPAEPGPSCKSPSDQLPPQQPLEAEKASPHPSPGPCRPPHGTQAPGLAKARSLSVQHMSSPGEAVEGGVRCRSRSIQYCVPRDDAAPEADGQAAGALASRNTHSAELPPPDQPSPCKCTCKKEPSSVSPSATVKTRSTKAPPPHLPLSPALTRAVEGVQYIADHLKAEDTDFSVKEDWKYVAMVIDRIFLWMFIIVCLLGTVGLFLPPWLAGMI

Structure (SMILES): CN1CCC[C@H]1c1cccnc1 [NICOTINE]
- Efficacy [1]: 70%
- Efficacy [2]: 124%

Source: ChEMBL document CHEMBL2176985 (J Med Chem, 2012)
